Data on one molecule can be found in ChEMBL document CHEMBL4428025 (J Med Chem, 2016).

The species named for this experiment is Homo sapiens. Nature of the experiment: Selectivity ratio of Ki for human mu opioid receptor to Ki for human nociceptin opioid receptor.

On to `O=C1NCN(c2ccccc2)C12CCN([C@@H]1CC[C@H]3CCCc4cccc1c43)CC2`, for which the Ratio Ki came to 100.
